# Binding of CDR-mutated scFvs to a peptide of the spike HR2 region

The measurements come from Engelhart et al. 2022 (doi:10.1038/s41597-022-01779-4) through the FLAb antibody collection.

All variants were tested on one target, the spike HR2 peptide PDVDLGDISGINAS (SARS-CoV-2).

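The starting antibody came from a phage panning campaign against this peptide. The library (AAYL50) carries one to three amino acid substitutions per variant, with no insertions or deletions. AlphaSeq pools MATa yeast showing the antibodies with MATalpha yeast showing the peptide. Mating (16 h, 30 °C) was followed by selection of diploids and sequencing of their barcodes. A regression on co-assayed BCL2-family reference pairs converts the normalised counts of each replicate to an apparent Kd. Each pool was mated in three replicate cultures.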

Ab-14 is the parent antibody, in scFv form: VH, then the linker GGGGSGGGGSGGGGS, then VL. The heavy chain is unchanged in all variants.
VH: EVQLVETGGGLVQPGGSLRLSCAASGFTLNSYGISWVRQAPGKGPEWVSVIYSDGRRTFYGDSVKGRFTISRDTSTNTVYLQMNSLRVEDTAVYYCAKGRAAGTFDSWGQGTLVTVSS
VL: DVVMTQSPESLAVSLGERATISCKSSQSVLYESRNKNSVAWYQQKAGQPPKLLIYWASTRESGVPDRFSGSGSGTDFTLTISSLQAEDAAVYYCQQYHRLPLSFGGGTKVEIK

The parent's light chain CDRs are KSSQSVLYESRNKNSVA, WASTRES, QQYHRLPLS; each variant's own CDRs replace them letter for letter. This list gathers variants with a substitution at S62 (VL, numbered from residue 1). The Kd shown is the geometric mean over detected replicates; a lower Kd is a better binder. "nd" marks a missing value. The strain was present, yet no cells mated with the target were sequenced in any replicate, which points to weak or no binding. Background: pairings of library AAYL50 with three empty control strains gave a value in 18% of cases (median 15 µM, 5th percentile 970 nM). Values in that range, when seen in few replicates, are hard to tell from nonspecific mating. For reference, the parent read 4.4 nM as the reference entry and 48 nM as a member of this library.

With KSSQSVLYESRLKNSVA | WAVTREF | QQYHRLPLS the result was 230 nM (3 of 3 replicates).
With KSSSSVLYESRNKNSVA | WASMRED | QQYHRLPLS the result was 2.2 µM (2 of 3 replicates).
With KSSQSVLYESRNKNSVM | WASTRED | QQFHRLPLS the result was 1.6 µM (2 of 3 replicates).
With KSSQSVLLESRYKNSVA | WASTRED | QQYHRLPLS the result was 5.5 nM (3 of 3 replicates).
With KSSQSLLYESRNKNSLA | WASTREC | QQYHRLPLS the result was 11 nM (3 of 3 replicates).
With MSSQSVLYESRNKNSYA | WASTREE | QQYHRLPLS the result was 34 nM (3 of 3 replicates).
With KSSQSSLYESRNKNSVA | WAKTREM | QQYHRLPLS the result was 34 nM (3 of 3 replicates).
With KSSQSVLYESRNKASVA | WASTREH | QQYHRLPLR the result was 190 nM (3 of 3 replicates).
With KSSQSVLYEFRNKNSVA | WASTREN | QQYDRLPLS the result was 36 nM (3 of 3 replicates).
With KSFQSVLYESRNKNSVA | WASTRRN | QQYHRLPLS the result was 9.2 µM (1 of 3 replicates).
With KSSQSVLYESRNKNPVA | WASTRED | QQYARLPLS the result was 3.4 nM (3 of 3 replicates).
With KSSQSVLYEIRNKNSVA | WASTREG | QQYHRLPLS the result was 3.0 µM (1 of 3 replicates).
With KISQSVLYESRNKNSVA | WASTEEK | QQYHRLPLS the result was 1.3 µM (3 of 3 replicates).
With KSSQSVLYESRNKNSVA | WASTREY | QAYDRLPLS the result was 100 nM (3 of 3 replicates).
With ESEQSVLYESRNKNSVA | WASTREQ | QQYHRLPLS the result was 2.5 µM (3 of 3 replicates).
With KSSQSVLGESRNKNSVA | WASTREI | QFYHRLPLS the result was 8.9 nM (3 of 3 replicates).
With KSSQSVLYESRNKNSVA | WASTRED | QQYHRIPLS the result was 9.4 nM (3 of 3 replicates).
With KSSQSVLYESRNKNSVA | WASTREV | QQYPRKPLS the result was 16 µM (2 of 3 replicates).
With KSSQSVLYESRNKNSVA | WASTREY | MQYHRLELS the result was 2.2 µM (1 of 3 replicates).
With KSSQSVLKESRNKNSVA | WASTQEP | QQYHRLPLS the result was 990 µM (1 of 3 replicates).
With KSSQSVLYESRNKFSVA | WASEREY | QQYHRLPLS the result was nd (0 of 3 replicates).
With KSSQSVLYESRNKNSVA | WASTWEA | QQYHRLPLE the result was 6.6 µM (1 of 3 replicates).
With PSSQSVLYESRNKNSGA | WASTRER | QQYHRLPLS the result was 2.1 µM (3 of 3 replicates).
With KSSQSVLYEIRNKNSVA | WASQREQ | QQYHRLPLS the result was 60 nM (3 of 3 replicates).
With MSHQSVLYESRNKNSVA | WASTREH | QQYHRLPLS the result was 90 nM (3 of 3 replicates).
With KSSQSVLPESRNKNSVA | WASTRIK | QQYHRLPLS the result was 50 nM (3 of 3 replicates).
With KSSQSVLYEARNKNSVA | WASTRET | QQYHRLPNS the result was nd (0 of 3 replicates).
With KSSQSVLVESRNKNSVA | WMSTRED | QQYHRLPLS the result was 19 nM (3 of 3 replicates).
With KSSQSVDYESRWKNSVA | WASTRED | QQYHRLPLS the result was 8.8 nM (3 of 3 replicates).
With KSSQNVLYESRNKNSVA | WASHREW | QQYHRLPLS the result was 130 nM (3 of 3 replicates).
With KSSQSVLYESRNKNSVA | WASTREK | QQNHRLPLS the result was 28 nM (3 of 3 replicates).
With KSSYSVLYESRNKNSVA | WASTREK | QQYHRLPLS the result was 41 nM (3 of 3 replicates).
With KASQSVLYESRNYNSVA | WASTREL | QQYHRLPLS the result was 5.7 nM (3 of 3 replicates).
With KSSQSVLYESRNPNSVA | WASTGEG | QQYHRLPLS the result was 59 µM (1 of 3 replicates).
With KSSQSVLYQSRNKNSVA | WASTREQ | QQYHRIPLS the result was 44 nM (3 of 3 replicates).
With KSSQSVLYESRNKNSVA | WASTRET | QQGHRLPGS the result was 6.4 nM (3 of 3 replicates).

For reference, 5 entries of the list once more:

{"CDR-L1": "KSSQSVLYQSRNKNSVA", "CDR-L2": "WASTREQ", "CDR-L3": "QQYHRIPLS", "Kd": "44 nM", "seen in": "3/3"}
{"CDR-L1": "KSSQSVLGESRNKNSVA", "CDR-L2": "WASTREI", "CDR-L3": "QFYHRLPLS", "Kd": "8.9 nM", "seen in": "3/3"}
{"CDR-L1": "KSSQSVLYESRNKNSVA", "CDR-L2": "WASTREV", "CDR-L3": "QQYPRKPLS", "Kd": "16 µM", "seen in": "2/3"}
{"CDR-L1": "KSSQSVLVESRNKNSVA", "CDR-L2": "WMSTRED", "CDR-L3": "QQYHRLPLS", "Kd": "19 nM", "seen in": "3/3"}
{"CDR-L1": "KSSQSVLYESRNKNPVA", "CDR-L2": "WASTRED", "CDR-L3": "QQYARLPLS", "Kd": "3.4 nM", "seen in": "3/3"}